Antibody variant affinities, Ab-14 heavy chain, assay B

Target: peptide PDVDLGDISGINAS, taken from heptad repeat 2 (HR2) of SARS-CoV-2 spike.

The variants keep the light chain, the linker and the frameworks of Ab-14 (scFv order VH, a (GGGGS)3 linker, VL).
VH: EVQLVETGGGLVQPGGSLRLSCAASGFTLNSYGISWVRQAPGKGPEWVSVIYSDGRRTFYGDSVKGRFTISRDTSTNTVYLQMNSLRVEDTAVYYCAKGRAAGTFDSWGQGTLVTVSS
VL: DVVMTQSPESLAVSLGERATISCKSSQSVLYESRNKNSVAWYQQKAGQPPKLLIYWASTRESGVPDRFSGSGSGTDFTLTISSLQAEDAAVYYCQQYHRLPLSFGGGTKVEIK

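The parent was found by panning a naive human phage display library on the peptide. This is the validation round: designs drawn from the data on random variants, tested in the same kind of assay. Several design methods are mixed in this list. Affinity was read by AlphaSeq, a pooled yeast mating assay with surface-displayed partners. Binding brings cells together so that they mate, and sequencing counts the barcode pairs among the diploids. Each replicate has its own calibration line, from reference interactions of the BCL2 family. Each pool was mated in six replicate cultures.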

Variants are written as CDR1, CDR2 and CDR3 of the heavy chain (limits as in the source). Parent: GFTLNSYGIS, VIYSDGRRTFYGDSVK, GRAAGTFDS.
Each Kd is an estimate from the mating assay, the geometric mean of the replicates in which the pair was seen; lower is stronger.
"no signal" marks a missing value. The strain was present, yet no cells mated with the target were sequenced in any replicate, which points to weak or no binding.
The parent sequence was in this pool as ten entries: three were never detected, three once, and four in most replicates, with averages from 2.2 nM to 240 nM.
As a blank, each scFv also met three strains without target: over all heavy chain designs, 1% of these pairings were detected, typically at 120 nM and seldom below 7.0 nM. Also given: how often the same scFv was detected with the empty control strains.
The range of this assay differs from that of the first round, and the authors advise against merging the two.
The authors averaged sequences with at least three values out of six and counted those with two or fewer as poor binders.

| # | CDR-H1 | CDR-H2 | CDR-H3 | apparent Kd | replicates with signal | control signals |
|---|---|---|---|---|---|---|
| 1 | EFTLNSYGIS | VIYSDGRRTFYIDSVK | GRIAGTFDS | no signal | 0 of 6 | 0 of 18 |
| 2 | GFDLNEYGIS | VIYADGFRTFYTDSVK | GEVAGTFDS | 230 pM | 6 of 6 | 0 of 18 |
| 3 | GADLNEYGIS | VIYADGSRTEYADTVK | GTHGGMFDS | 64 nM | 1 of 6 | 0 of 18 |
| 4 | GFTLESYGIS | VIYADGRRTFYGDSVK | GTAAGTFDS | 5.0 nM | 6 of 6 | 0 of 18 |
| 5 | GFDLNEYGIS | VIYADGRRTAYADSVK | GNNAGTFDL | no signal | 0 of 6 | 0 of 18 |
| 6 | GFTLGSYGIS | VIYSDGYRTAYGDSVK | GRESGTFDS | no signal | 0 of 6 | 0 of 18 |
| 7 | GFELNEYGIS | VIYSDGRRTFYGDSVK | GRIAGTFDT | 830 pM | 6 of 6 | 0 of 18 |
| 8 | GFTLNSYGIS | VIYSDGRRTFYDWSVK | GQVAGTFDS | no signal | 0 of 6 | 0 of 18 |
| 9 | HFDWNSYGIS | VIYSDGRRTFYGDSVK | GRAAGWFNS | no signal | 0 of 6 | 0 of 18 |
| 10 | GADINEYGIS | VIYADGDRIAAQDQVK | GTNAGSFDI | 220 nM | 1 of 6 | 1 of 18 |
| 11 | GFTLNSYGIS | VIYSDGKRTFYGDSVK | GLVAGTFDT | 4.6 nM | 5 of 6 | 0 of 18 |
| 12 | GFKLDEYGIS | VIYADGVRAHYKESVK | GVHGAYVVF | no signal | 0 of 6 | 0 of 18 |
| 13 | GFTLNSCGIS | VIYSDGRRTFYIDSVK | CRVAGVFVS | no signal | 0 of 6 | 0 of 18 |
| 14 | GFDLNEYGIS | VIYADGQRTAYADKVK | GNVAGTFDQ | 1.8 nM | 6 of 6 | 0 of 18 |
| 15 | GFNLDEQGIS | VIYADGVRCSYAQSVK | GKSSGFIDT | no signal | 0 of 6 | 1 of 18 |
| 16 | GFVLNSYGIS | VIYSDGRRTFYDDSVK | GQTAGTFDS | 16 nM | 5 of 6 | 0 of 18 |
| 17 | GFDLDEYGIS | VIYADGKRTVYADSVK | GNQAGTFDV | 1.3 nM | 6 of 6 | 0 of 18 |
| 18 | GFELNSYGIS | VIYSDGERTQYKDSVK | GRAAVTFDS | no signal | 0 of 6 | 0 of 18 |
| 19 | GFTLNDYGIS | VIYSDGRRMQYIDSVK | GRAAGLFDS | no signal | 0 of 6 | 0 of 18 |
| 20 | GFSLNSYGIS | VIYSDGRRTFYGDRVK | GQTAGTFDS | 5.6 nM | 1 of 6 | 0 of 18 |
| 21 | GFDLNEYGIS | VIYADGSRTAYAESVK | GENAGTFDV | 2.3 nM | 6 of 6 | 0 of 18 |
| 22 | GFDLDEYGIS | VIYADGVRTAYADSVK | GQNAGTFDM | 1.1 nM | 6 of 6 | 0 of 18 |
| 23 | GEDLNEYGVS | VIYADGIRSTYADKVK | GKHGAAFFV | no signal | 0 of 6 | 0 of 18 |
| 24 | GFHLNSYGIS | VIYSDGRRTFYTDSVK | GRAAGTFDS | 120 nM | 3 of 6 | 0 of 18 |
| 25 | GFTLNEYGIS | VIYSDGRRTFYGDSVK | GRAPVTFDQ | no signal | 0 of 6 | 0 of 18 |
| 26 | GFTINLYGIS | VIYSDGYRTFYGDSVK | GRAAKTFDS | no signal | 0 of 6 | 1 of 18 |
| 27 | GFTLNSYGIS | VIYSDGMRTAYDDSVD | GRSAGTFDS | 690 nM | 4 of 6 | 1 of 18 |
| 28 | GFTLESYGIS | VIYSDGRRTFYGDSVK | GRAALTFDS | no signal | 0 of 6 | 0 of 18 |
| 29 | GEDLEEYGIS | VIYADGMRQYYANSVK | GDINDVDDL | no signal | 0 of 6 | 1 of 18 |
| 30 | GFNLKEYGIS | VIYADGVRAQYAESVK | GIYSSKFGM | 4.5 nM | 6 of 6 | 0 of 18 |
| 31 | GFDLNEYGIS | VIYADGRRTFYADSVK | GKVAGTFVS | 880 pM | 6 of 6 | 0 of 18 |
| 32 | GFDLNEYGIS | VIYADGSRTAYADSVK | GETAGTFDT | 340 pM | 6 of 6 | 0 of 18 |
| 33 | GFDLNEYGIS | VIYADGVRTAYADSVK | GQNAGTFDQ | 57 pM | 5 of 6 | 0 of 18 |
| 34 | GFSLDEYGIS | VIYADGRRTAYADSVK | GNVAGTFDS | no signal | 0 of 6 | 0 of 18 |
| 35 | GFDLNEYGIS | VIYADGRRTAYIDSVK | GNVAGTFDA | 320 pM | 6 of 6 | 1 of 18 |
| 36 | GFDLDEYGIS | VIYADGMRTAYSDSVK | GNVAGTFDE | 260 pM | 6 of 6 | 0 of 18 |
| 37 | GFWLNNYGIS | VIYSDGRRTAYGDSVK | GRAAGTFDS | 72 nM | 5 of 6 | 0 of 18 |
| 38 | GFSLNNYGIS | VIYSDGRRTFYGDKVK | GRTAGTFDS | 10 nM | 6 of 6 | 1 of 18 |
| 39 | GFSLDEYGIS | VIYADGMRTFYADDVK | GNVAGTFDV | 320 pM | 6 of 6 | 1 of 18 |
| 40 | GFDLNSYGIS | VIYSDGRRTAYGDNVK | GRNAGTFDS | 720 pM | 6 of 6 | 0 of 18 |
| 41 | GFTLNSYGIS | VIYSDGRRTFYGDSFK | GRAAATFDS | 7.9 nM | 1 of 6 | 1 of 18 |
| 42 | GFTLNSVGIS | VIYSDGRRTFYSDSVK | GRAGGTFDS | no signal | 0 of 6 | 0 of 18 |
| 43 | GFTLNSYGIS | VIYSDGHRTFYGDSVK | GRAAGFFDS | no signal | 0 of 6 | 0 of 18 |
| 44 | GFDLNEYGIS | VIYADGKRTFYTDSVK | GANAGTFDS | 190 pM | 6 of 6 | 0 of 18 |
| 45 | GFNLDEYGIS | VIYADGMRTAFGDNVK | GTNFGDTVF | 1.1 nM | 6 of 6 | 0 of 18 |
| 46 | GFDLNEYGIS | VIYADGMRTAYVDSVK | GNEAGTFDI | 2.4 nM | 6 of 6 | 1 of 18 |
| 47 | GFDLNEYGIS | VIYADGIRTFYADSVK | GNAAGTFDV | 590 pM | 6 of 6 | 0 of 18 |
| 48 | GFDLDEYGIS | VIYADGRRTFYTDSVK | GNVAGTFDE | 140 pM | 6 of 6 | 0 of 18 |
| 49 | GFDLNEYGIS | VIYADGMRTAYSDDVK | GEVAGTFDV | 300 pM | 6 of 6 | 0 of 18 |
| 50 | GFTLNEYGIS | VIYSDGRRTFYGDSVK | GRAAGTFWW | no signal | 0 of 6 | 1 of 18 |
| 51 | GFGLTSYGIS | VIYSDGRRTFYGNSVK | DRAAGTFDS | no signal | 0 of 6 | 0 of 18 |
| 52 | GFDLEDYGIS | VIYADGKRTAYADSVK | GNEAGTFDV | 530 pM | 6 of 6 | 0 of 18 |
| 53 | GFSLNEYGIS | VIYSDGRRTFYCDSVK | GQAAGTFDS | 3.4 nM | 6 of 6 | 0 of 18 |
| 54 | GFPLNMYGIS | VIYADGRRTFYGDSVK | GEAAGTFDS | 860 pM | 6 of 6 | 0 of 18 |
| 55 | GFTLNSYGIS | VIYSDGRRTFYGDSVK | GRAHGSFDS | no signal | 0 of 6 | 0 of 18 |
| 56 | GFSLNWYGIS | VIYSDGRRTFYSDSVK | GQAAGTFDS | 32 nM | 5 of 6 | 0 of 18 |
| 57 | GFDLNEYGIS | VIYADGMRTAYADNVK | GENAGTFDT | 410 pM | 6 of 6 | 0 of 18 |
| 58 | GFDLNEYGIS | VIYADGMRKFYADDVK | GNVAGTFDV | 200 pM | 6 of 6 | 1 of 18 |
| 59 | GFQLDEYGIS | VIYADGRRTFYADSVK | GEVAGTFDV | 160 pM | 6 of 6 | 1 of 18 |
| 60 | GFELNSYGIS | VIYSDGRRTFYSDDVK | GEAAGTFDS | 10 nM | 5 of 6 | 0 of 18 |
| 61 | GFTLNSYGIS | VIYSDGRRTFYGDSVK | GDAAGSFDD | no signal | 0 of 6 | 0 of 18 |
| 62 | GFSLNEYGIS | VIYSDGKRTFYGDSVK | GRAAGTFDS | 1.1 nM | 6 of 6 | 0 of 18 |
| 63 | GFDLNEYGIS | VIYADGRRTFYSDSVK | GNAAGTFDV | 570 pM | 6 of 6 | 0 of 18 |
| 64 | GFTLNSYGIS | VIYADGRRTFYGDSVK | GRMAKTFDS | no signal | 0 of 6 | 0 of 18 |
| 65 | GFNLDEYGIS | VIYADGKRTRYANDVK | GGYGGIMLS | no signal | 0 of 6 | 0 of 18 |
| 66 | GFTLNSYGIS | VKASDGRRTFYGDSVK | ARAAGTNKS | no signal | 0 of 6 | 0 of 18 |
| 67 | RFTLNSYGIT | VIYSDGRRTFYHDSVK | GRAAGTFDQ | no signal | 0 of 6 | 0 of 18 |
| 68 | GFDLDEYGIS | VIYADGKRTYYADSVK | GNVAGTFDI | 89 pM | 6 of 6 | 0 of 18 |

Picked from the list: the 11 lowest averages where every replicate gave a value.

| CDR-H1 | CDR-H2 | CDR-H3 | apparent Kd | replicates with signal | control signals |
|---|---|---|---|---|---|
| GFDLDEYGIS | VIYADGKRTYYADSVK | GNVAGTFDI | 89 pM | 6 of 6 | 0 of 18 |
| GFDLDEYGIS | VIYADGRRTFYTDSVK | GNVAGTFDE | 140 pM | 6 of 6 | 0 of 18 |
| GFQLDEYGIS | VIYADGRRTFYADSVK | GEVAGTFDV | 160 pM | 6 of 6 | 1 of 18 |
| GFDLNEYGIS | VIYADGKRTFYTDSVK | GANAGTFDS | 190 pM | 6 of 6 | 0 of 18 |
| GFDLNEYGIS | VIYADGMRKFYADDVK | GNVAGTFDV | 200 pM | 6 of 6 | 1 of 18 |
| GFDLNEYGIS | VIYADGFRTFYTDSVK | GEVAGTFDS | 230 pM | 6 of 6 | 0 of 18 |
| GFDLDEYGIS | VIYADGMRTAYSDSVK | GNVAGTFDE | 260 pM | 6 of 6 | 0 of 18 |
| GFDLNEYGIS | VIYADGMRTAYSDDVK | GEVAGTFDV | 300 pM | 6 of 6 | 0 of 18 |
| GFSLDEYGIS | VIYADGMRTFYADDVK | GNVAGTFDV | 320 pM | 6 of 6 | 1 of 18 |
| GFDLNEYGIS | VIYADGRRTAYIDSVK | GNVAGTFDA | 320 pM | 6 of 6 | 1 of 18 |
| GFDLNEYGIS | VIYADGSRTAYADSVK | GETAGTFDT | 340 pM | 6 of 6 | 0 of 18 |

Values reported by Li et al. 2023, doi:10.1038/s41467-023-39022-2 (FLAb copy).